This assay has as its system VIT4-G9 cell line.

This is an account of results in patent US7527971B2, “Adult stem cell lines” (Vitro Diagnostics, Inc., priority 2004, dated 2009).

For `CC1=C2C[C@H]3[C@@H](CC=C4C[C@@H](O)CC[C@@]43C)[C@@H]2CC[C@]12O[C@@H]1C[C@H](C)CN[C@H]1[C@H]2C` [cyclopamine, Cyclopamine], the VIT4-G9 growth entry was “blocked”.
